Assay: Plasma pharmacokinetics of the CYP probe substrates and metabolites
Format: in vivo, human
Settings: for Cmax: plasma
[1] = Period 2, CYP probes + upadacitinib 30 mg once daily, n = 20, mean ± SD

Which results are given for `CC(=O)C[C@@H](c1ccccc1)c1c(O)c2ccccc2oc1=O` [S‐warfarin]?
CL/F (Period 1, CYP probes alone, n = 20, mean ± SD): 0.462 ± 0.122 L/h; Cmax (Period 1, CYP probes alone, single oral dose, healthy subjects n = 20, mean ± SD): 630 ± 84.4 ng/mL; CL/F [1]: 0.422 ± 0.120 L/h; Cmax [1]: 675 ± 121 ng/mL

Reference: publication PMC6972567 (Journal of Clinical Pharmacology, 2019)
